Patent publication US20090186811A1 (published 2009)

By UniProt entry, the sequences of proteins in these tests, tags left out.
UniProt P49146, whole entry: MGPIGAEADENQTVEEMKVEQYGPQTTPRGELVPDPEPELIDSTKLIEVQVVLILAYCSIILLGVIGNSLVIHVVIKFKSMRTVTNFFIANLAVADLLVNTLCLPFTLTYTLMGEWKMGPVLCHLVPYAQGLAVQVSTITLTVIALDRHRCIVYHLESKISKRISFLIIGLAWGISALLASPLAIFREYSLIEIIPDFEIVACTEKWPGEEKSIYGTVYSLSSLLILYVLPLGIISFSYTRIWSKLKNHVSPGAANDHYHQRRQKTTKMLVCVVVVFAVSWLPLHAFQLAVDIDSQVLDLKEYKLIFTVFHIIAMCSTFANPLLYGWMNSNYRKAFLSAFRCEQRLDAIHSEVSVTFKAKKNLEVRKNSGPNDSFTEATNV
UniProt P25929, whole entry: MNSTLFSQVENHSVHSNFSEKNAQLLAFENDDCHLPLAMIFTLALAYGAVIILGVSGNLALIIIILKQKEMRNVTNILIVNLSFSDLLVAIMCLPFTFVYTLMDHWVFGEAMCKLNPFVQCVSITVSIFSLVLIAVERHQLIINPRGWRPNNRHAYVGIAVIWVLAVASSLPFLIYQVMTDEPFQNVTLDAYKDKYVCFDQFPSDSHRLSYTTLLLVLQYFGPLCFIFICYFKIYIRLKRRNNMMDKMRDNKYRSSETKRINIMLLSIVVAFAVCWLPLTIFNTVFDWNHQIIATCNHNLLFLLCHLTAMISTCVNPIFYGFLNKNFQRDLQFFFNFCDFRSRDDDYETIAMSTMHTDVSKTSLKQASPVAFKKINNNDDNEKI

B1: Lys-Lys-Lys-Lys-Lys-Lys-PYY25-36 (peptide)
peptide: KKKKKKRHYLNLVTRQRY
modifications: C-terminal amide
notes: also called [Lys]6-PYY25-36
B2: Fluorescein-[Cys2,N-{(Ala-Arg-Arg-Arg-Ala-Ala-Arg-Ala)3}-Lys13,D-Cys27]PYY (peptide)
peptide: not shown
chain: ARRRAARAARRRAARAARRRAARA
modifications: fluorescein (5,6 isomer) on the N-terminus; C-terminus amide-linked to the epsilon amino group of Lys13 of the PYY chain; epsilon amino group of Lys13 joined by an amide bond to the C-terminus of the 24-residue GAG-binding motif; D-Cys at position 27; disulfide bridge Cys2 to D-Cys27; C-terminal amide

Experiments:
human Y2 receptor = human Y2 receptor (human, UniProt P49146 1-381); assay: cell-based or functional assay
human Y1 receptor = molecular target: T1, human Y1 receptor (human, UniProt P25929 1-384); assay: competition binding, 125I-NPY displaced, COS-7 cells with human Y1
T1 construct: whole, on cells

Binder | EC50 (inositol phosphate turnover) (human Y2 receptor) [nM] | IC50 (human Y1 receptor) [nM]
B1 | 213 | 520
B2 | 0.37 | –
